# Binding of CDR-mutated scFvs to a peptide of the spike HR2 region

The target is the same throughout: PDVDLGDISGINAS, from the HR2 region of SARS-CoV-2 spike.

The variants keep the heavy chain, the linker and the frameworks of Ab-14 (scFv order VH, three GGGGS repeats, VL).
VH: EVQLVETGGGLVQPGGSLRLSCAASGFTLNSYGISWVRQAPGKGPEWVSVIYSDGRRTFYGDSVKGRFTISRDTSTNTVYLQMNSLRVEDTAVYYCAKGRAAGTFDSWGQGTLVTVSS
VL: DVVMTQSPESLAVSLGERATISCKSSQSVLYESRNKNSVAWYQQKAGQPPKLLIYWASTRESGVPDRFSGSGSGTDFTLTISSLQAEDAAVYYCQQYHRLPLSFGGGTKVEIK

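The parent was found by panning a naive human phage display library on the peptide. Variants in AAYL50 differ from the parent at up to three CDR positions; double and triple changes were sampled at random. The scFvs were displayed on barcoded MATa yeast, the peptide on MATalpha yeast. Binding brings cells together so that they mate, and sequencing counts the barcode pairs among the diploids. Read counts were normalised to the haploid input and turned into Kd by a linear fit to BCL2-family pairs of known affinity, for each replicate. There are three technical replicates.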

The parent's light chain CDRs are KSSQSVLYESRNKNSVA, WASTRES, QQYHRLPLS; each variant's own CDRs replace them letter for letter. Every variant below is changed at S38 of the VL (sequential numbering). Kd is apparent (estimated from mating counts) and averaged on the log scale over replicates with a signal. Smaller is tighter. "nd" marks a missing value. The strain was present, yet no cells mated with the target were sequenced in any replicate, which points to weak or no binding.

CDR-L1	CDR-L2	CDR-L3	Kd (apparent)	replicates with signal	signal with controls
KSSQSWLYESRNKNAVA	WASTRES	QTYHRLPLS	11 nM	3/3	2/9
KSSQSVLYESRNKNQVA	RASTRES	QQYFRLPLS	690 pM	3/3	0/9
KSSQSVLYESRNKSDVA	WASTEES	QQYHRLPLS	nd	0/3	1/9
KSSQSVLYDSRNRNWVA	WASTRES	QQYHRLPLS	nd	0/3	0/9
KSSQSVLYESRNKNDVA	WDSTRES	QQYHRLPCS	nd	0/3	0/9
KSSASVLYESRNKNCVA	WASTRES	QQYHRLPTS	nd	0/3	0/9
KSFQSVLYESRNKNDVA	WASTRES	QQYHRLPLS	2.8 µM	3/3	4/9
KSSQSVLYESRNKNNVA	WARTRES	QQYHRLPLS	21 nM	3/3	2/9
KTSQSVLYESRNKNCVA	NASTRES	QQYHRLPLS	3.7 nM	3/3	4/9
KWSQSVLYESRNKNRVA	WASTRES	QQYHRLPLS	500 nM	3/3	4/9
KSSQSVLYESRNKNCVA	WYSTRES	QQYHELPLS	nd	0/3	1/9
KSSQSVLREIRNKNVVA	WASTRES	QQYHRLPLS	nd	0/3	3/9
KSSQSVLYESRNKNGVY	WASARES	QQYHRLPLS	2.1 µM	1/3	1/9
KSSQSVFYESRNKNWVA	TASTRES	QQYHRLPLS	nd	0/3	0/9
KSSQSVLYESRNKNQVA	WASTRES	QQYHRLPFS	690 nM	1/3	2/9
KSSHSVLYESSNKNCVA	WASTRES	QQYHRLPLS	39 nM	3/3	2/9
KSSQSVLYESRNKNDVA	WASTRES	QQYHRLPLS	130 nM	3/3	3/9
KSSQSVLYESRNKNCVA	WASTRES	QQYHVLPLS	nd	0/3	1/9
KSSQSVWYESRFKNAVA	WASTRES	QQYHRLPLS	nd	0/3	0/9
KSSQSVLYESRSKNFKA	WASTRES	QQYHRLPLS	nd	0/3	1/9
KSSQSVLYISRPKNLVA	WASTRES	QQYHRLPLS	19 µM	3/3	4/9
KSSQSVLYESRNKNNVA	WASTRVS	QQYHRLPLS	2.3 nM	3/3	7/9
KSSQSVLYESRNKNGVA	WASTRNS	QQYHRLPLV	46 µM	3/3	4/9
KSSQSVLYEMRNKNQVA	WASTRES	QQYNRLPLS	2.3 nM	3/3	3/9
KSWQSVLYESRNKNDVA	AASTRES	QQYHRLPLS	11 nM	3/3	1/9
KSSQSVLYESRNKNRVA	WFSTREY	QQYHRLPLS	nd	0/3	3/9
KSSCSVLYESRNKNKVA	WASTRES	QQYMRLPLS	9.4 µM	1/3	1/9
KSSQSVLYEGRNKNDVA	WASTRES	QQCHRLPLS	510 nM	3/3	3/9
KSSQKVLYEVRNKNFVA	WASTRES	QQYHRLPLS	nd	0/3	5/9
KSSQSVLYESRNKNNVA	WVSTRGS	QQYHRLPLS	1.7 nM	3/3	1/9
KSSQSVLYESRTKNKVA	WASTRES	QQYHKLPLS	nd	0/3	0/9
MSSQSVLYESRNTNIVA	WASTRES	QQYHRLPLS	nd	0/3	0/9
KSSQSVLYESRNKNRVA	WCCTRES	QQYHRLPLS	nd	0/3	0/9
KSSQSVLYQSRNKNVVA	WASTRES	QQYHRAPLS	960 nM	1/3	1/9
KSSQSVLYESRNKNLVA	WASTRES	FQYHRLPLS	78 µM	1/3	0/9
KSSQSVLYESRNKNIVA	WASTTES	QQYHRLPLS	15 µM	1/3	2/9
KSSQSVLYESRNKNCVA	WASTRED	QQYHRLPLP	nd	0/3	0/9
KSSQSVLYESRNKNYVA	FASTRNS	QQYHRLPLS	1.4 µM	3/3	1/9
KSSQSVLYESRNKNCVA	PASTRES	QQYHRYPLS	nd	0/3	1/9
KSSQSVLYASRNKNTTA	WASTRES	QQYHRLPLS	nd	0/3	1/9
KSRQSVLYESRNKNAVA	WTSTRES	QQYHRLPLS	17 nM	3/3	1/9
KSSQSVLYCSRNKNYVA	WASTRES	QQYHRSPLS	980 nM	1/3	0/9
KSSQLVLYEPRNKNYVA	WASTRES	QQYHRLPLS	910 nM	3/3	3/9
KSSQSVLYESRQKNGVA	WASTRES	QQYHRLPLS	120 nM	3/3	4/9
KSSQSVLYESRNKNNPA	WASTRES	VQYHRLPLS	390 µM	1/3	2/9
KSSQSVLYESHNKNQVA	WASTRES	QQYHRLPLS	24 nM	3/3	1/9
KSSQSVLYESRNKNVVA	WESCRES	QQYHRLPLS	690 µM	1/3	0/9
KSMQSVLYESTNKNYVA	WASTRES	QQYHRLPLS	2.9 µM	2/3	1/9
KSSQSVLYESRNKFEVV	WASTRES	QQYHRLPLS	nd	0/3	0/9
KSSQSVLYESRNKNDVA	WASTRES	QQAHRLPLS	9.5 µM	2/3	2/9
KSSQSVLYESRNKNAQA	WASTRGS	QQYHRLPLS	nd	0/3	0/9
KSSQSVLYESRNVNQVN	WASTRES	QQYHRLPLS	23 µM	1/3	4/9
KSSQSVLYESRNKNVVA	WASTRES	QQYHRLPLS	1.4 µM	1/3	3/9
KSSQSVLYESRNKNGWA	WASTRIS	QQYHRLPLS	33 µM	1/3	1/9
KSLQSVLYESRNKNYVA	WASTRES	QQYHRLPLD	nd	0/3	0/9
KSSQGVLYESRNKNNVA	WASTRES	QQYHRLPFS	3.0 nM	3/3	0/9
KSSQWVSYESRNKNKVA	WASTRES	QQYHRLPLS	55 nM	3/3	1/9
KSSQSVLYESRNKNFEP	WASTRES	QQYHRLPLS	nd	0/3	1/9

Again, the first 8 entries without any signal:

CDR-L1,CDR-L2,CDR-L3,Kd (apparent),replicates with signal,signal with controls
KSSQSVLYESRNKSDVA,WASTEES,QQYHRLPLS,nd,0/3,1/9
KSSQSVLYDSRNRNWVA,WASTRES,QQYHRLPLS,nd,0/3,0/9
KSSQSVLYESRNKNDVA,WDSTRES,QQYHRLPCS,nd,0/3,0/9
KSSASVLYESRNKNCVA,WASTRES,QQYHRLPTS,nd,0/3,0/9
KSSQSVLYESRNKNCVA,WYSTRES,QQYHELPLS,nd,0/3,1/9
KSSQSVLREIRNKNVVA,WASTRES,QQYHRLPLS,nd,0/3,3/9
KSSQSVFYESRNKNWVA,TASTRES,QQYHRLPLS,nd,0/3,0/9
KSSQSVLYESRNKNCVA,WASTRES,QQYHVLPLS,nd,0/3,1/9

Background: pairings of library AAYL50 with three empty control strains gave a value in 18% of cases (median 15 µM, 5th percentile 970 nM). Values in that range, when seen in few replicates, are hard to tell from nonspecific mating. The control count says in how many pairings with the empty strains this scFv gave a signal. In this assay the parent's reference entry averaged 4.4 nM; its copy inside this library read 48 nM.

Source: Engelhart et al. 2022 (doi:10.1038/s41597-022-01779-4), MIT Lincoln Laboratory and A-Alpha Bio; data file from the FLAb repository.